Results: PMC5826336 (Frontiers in Synaptic Neuroscience, 2018)

The chains behind the UniProt entries cited, without tags or fusion partners. Where a name states a change or a piece, a line headed by the entry shows the natural chain unless it says otherwise.
UniProt P14416, whole entry: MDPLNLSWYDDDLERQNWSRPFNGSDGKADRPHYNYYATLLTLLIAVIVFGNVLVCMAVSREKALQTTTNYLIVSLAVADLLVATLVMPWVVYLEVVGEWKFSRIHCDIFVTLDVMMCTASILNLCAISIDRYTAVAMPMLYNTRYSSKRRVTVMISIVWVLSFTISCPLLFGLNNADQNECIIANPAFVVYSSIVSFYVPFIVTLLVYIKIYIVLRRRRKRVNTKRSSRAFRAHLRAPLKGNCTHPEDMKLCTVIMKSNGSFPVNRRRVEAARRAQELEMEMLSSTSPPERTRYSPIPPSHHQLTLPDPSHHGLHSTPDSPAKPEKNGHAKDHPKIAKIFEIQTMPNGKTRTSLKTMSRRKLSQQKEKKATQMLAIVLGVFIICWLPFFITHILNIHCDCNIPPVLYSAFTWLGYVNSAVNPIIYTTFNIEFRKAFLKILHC

Tests used:
[1] = target: D2R long isoform (PathHunter) (Homo sapiens, UniProt P14416); test: PathHunter beta-arrestin recruitment, agonist mode; settings: read-out: β-arrestin recruitment assay / EC50 (μM ± S.E.M.); CHO-K1, 90 min, 37°C
human D2R long isoform = human D2R long isoform (Homo sapiens, UniProt P14416); test: HitHunter cAMP assay, inhibition of forskolin-stimulated cAMP, agonist mode; settings: read-out: cAMP inhibition assay / EC50 (μM ± S.E.M.); CHO-K1, forskolin, 60 min, 37°C

EC50 [1]: 7.6 µM
EC50 (human D2R long isoform): 0.8 µM
SMILES: Cc1c(CN2CCN(c3ncccn3)CC2)ccc2cccnc12
